Apparent affinities of Ab-14 variants for a coronavirus HR2 peptide

Antigen: PDVDLGDISGINAS, a 14-residue peptide of the SARS-CoV-2 spike HR2 region.

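The starting antibody came from a phage panning campaign against this peptide. In library AAYL49, one, two or three CDR residues were substituted; doubles and triples were drawn at random. Affinity was read by AlphaSeq, a pooled yeast mating assay with surface-displayed partners. After mating in shaken culture at 30 °C for 16 h, diploids were selected and their barcode pairs sequenced. Each replicate has its own calibration line, from reference interactions of the BCL2 family. The assay was run in three technical replicates.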

Parent scFv Ab-14: VH joined to VL by the linker GGGGSGGGGSGGGGS. Changes lie in the heavy chain CDRs alone.
VH: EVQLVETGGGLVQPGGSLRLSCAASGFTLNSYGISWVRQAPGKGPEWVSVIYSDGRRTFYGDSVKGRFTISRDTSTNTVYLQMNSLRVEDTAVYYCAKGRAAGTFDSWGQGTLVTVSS
VL: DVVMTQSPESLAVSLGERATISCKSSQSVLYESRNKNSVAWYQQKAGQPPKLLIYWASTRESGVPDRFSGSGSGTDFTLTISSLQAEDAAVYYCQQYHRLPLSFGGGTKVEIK

Changes read parent residue, position, new residue, counted from the first residue of the VH shown. This list gathers variants with a substitution at R100 (VH, numbered from residue 1). Values are apparent Kd, the geometric mean of the replicates that gave a signal; lower means stronger binding. A pair that was not seen in any replicate is written "nd"; this usually means weak binding, but a binder can also be missed. Background: pairings of library AAYL49 with three empty control strains gave a value in 15% of cases (median 11 µM, 5th percentile 680 nM). Values in that range, when seen in few replicates, are hard to tell from nonspecific mating. Parent in this assay: reference entry 4.4 nM, copy in this library 13 µM (one replicate of three).

The variant F27S+R100Q showed 45 nM (3 of 3 replicates). For G99R+R100I, the assay gave nd (0 of 3 replicates). With R100D the result was nd (0 of 3 replicates). The variant F59L+R100D+D106I showed nd (0 of 3 replicates). The variant F27N+R100Q+S107G gave 6.3 µM (3 of 3 replicates). With R56T+R100D+D106W the result was nd (0 of 3 replicates). The variant I34F+D54A+R100W gave 17 µM (1 of 3 replicates). The variant F27A+R100L+T104I showed 11 µM (2 of 3 replicates).

With I34W+D62S+R100Y the result was nd (0 of 3 replicates). The variant G55D+F59Q+R100G gave 12 µM (1 of 3 replicates). With G33Q+R100F+G103M the result was nd (0 of 3 replicates). For S35M+R100Q, the assay gave nd (0 of 3 replicates). The variant V50W+R57F+R100K gave nd (0 of 3 replicates). For Y60T+R100L+F105Y, the assay gave 2.2 µM (1 of 3 replicates). The variant N30R+R100L+F105G showed 38 nM (3 of 3 replicates). With T28Y+S63W+R100A the result was nd (0 of 3 replicates).

The variant G26R+Y60G+R100T gave nd (0 of 3 replicates). With G55E+D62C+R100T the result was 35 µM (2 of 3 replicates). For N30K+S63I+R100N, the assay gave 170 nM (3 of 3 replicates). For I34P+G55C+R100F, the assay gave nd (0 of 3 replicates). For R100E+A102Y, the assay gave 15 µM (2 of 3 replicates). For Y32C+T58H+R100H, the assay gave nd (0 of 3 replicates). The variant F27L+I51R+R100V gave 17 µM (1 of 3 replicates). With I34Y+R100C+S107A the result was 180 µM (2 of 3 replicates).

For I34C+Y52H+R100F, the assay gave nd (0 of 3 replicates). For S53E+G99P+R100M, the assay gave nd (0 of 3 replicates). For G55I+R100F+S107M, the assay gave nd (0 of 3 replicates). The variant T28L+G61S+R100T showed 14 nM (3 of 3 replicates). For R56H+R100G+G103I, the assay gave 18 µM (1 of 3 replicates). The variant L29M+G33M+R100Y showed nd (0 of 3 replicates). For G55C+R57K+R100M, the assay gave nd (0 of 3 replicates). With Y32N+I51F+R100Q the result was 1.1 µM (1 of 3 replicates).

For V50Q+R100G+A101L, the assay gave 300 µM (2 of 3 replicates). The variant N30S+R100L+S107R gave 150 nM (2 of 3 replicates). The variant S31V+V64Q+R100V showed 39 µM (2 of 3 replicates). With I51P+R100K the result was nd (0 of 3 replicates). For S35L+D62P+R100E, the assay gave 7.5 µM (1 of 3 replicates). With L29T+V64W+R100Q the result was nd (0 of 3 replicates). The variant S31G+S63C+R100T showed 2.7 µM (3 of 3 replicates). With S53V+R100F+F105H the result was nd (0 of 3 replicates).

The variant I34R+R100T showed nd (0 of 3 replicates). For Y52G+D54M+R100W, the assay gave 36 µM (1 of 3 replicates). For Y52H+F59V+R100V, the assay gave 6.5 µM (1 of 3 replicates). The variant N30H+I34E+R100E showed nd (0 of 3 replicates). The variant G99W+R100P+A102N showed 8.2 µM (1 of 3 replicates). The variant R100G+A102R+F105W gave 8.0 nM (3 of 3 replicates). The variant V50P+K65L+R100E showed 5.5 µM (1 of 3 replicates). The variant V50I+V64D+R100L showed nd (0 of 3 replicates).

The variant G33W+S53P+R100G showed 39 µM (2 of 3 replicates). With S31V+G61A+R100H the result was nd (0 of 3 replicates). With S35I+R100K+S107H the result was 6.6 µM (1 of 3 replicates). For V50Q+V64E+R100N, the assay gave nd (0 of 3 replicates).

5 of these entries, quoted again:

| changes | Kd (apparent) | seen in |
|---|---|---|
| S31V+G61A+R100H | nd | 0/3 |
| V50P+K65L+R100E | 5.5 µM | 1/3 |
| S53E+G99P+R100M | nd | 0/3 |
| Y60T+R100L+F105Y | 2.2 µM | 1/3 |
| G55D+F59Q+R100G | 12 µM | 1/3 |

Reference: Engelhart et al. 2022, doi:10.1038/s41597-022-01779-4. File: FLAb, binding data.